Structures are written as SMILES. The list shows a part of the results, in another mix than the full data. The source made the active and inactive calls.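 Rule for the calls: active = calcium response below the same-plate mean of wells given acetylcholine alone at its 80%-effect dose, minus 3 SD; inactive = the rest.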

The chains behind the UniProt entries cited, without tags or fusion partners. Where a name states a change or a piece, a line headed by the entry shows the natural chain unless it says otherwise.
UniProt P08482: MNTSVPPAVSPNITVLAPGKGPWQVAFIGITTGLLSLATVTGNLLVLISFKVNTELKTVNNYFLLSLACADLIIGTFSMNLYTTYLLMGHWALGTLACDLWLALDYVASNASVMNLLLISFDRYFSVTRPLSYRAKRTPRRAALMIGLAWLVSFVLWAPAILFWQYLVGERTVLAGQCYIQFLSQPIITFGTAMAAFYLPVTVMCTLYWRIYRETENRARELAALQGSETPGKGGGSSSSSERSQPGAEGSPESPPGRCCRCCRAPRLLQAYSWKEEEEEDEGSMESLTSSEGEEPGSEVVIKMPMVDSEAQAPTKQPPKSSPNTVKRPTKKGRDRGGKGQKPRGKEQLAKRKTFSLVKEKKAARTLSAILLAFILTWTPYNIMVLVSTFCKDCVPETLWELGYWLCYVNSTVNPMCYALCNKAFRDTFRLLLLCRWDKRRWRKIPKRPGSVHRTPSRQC

In the assay the target is Muscarinic acetylcholine receptor M1 (Rattus norvegicus) (UniProt P08482). The assay can be described thus: blockers of ACh-evoked M1 calcium signal – CHO cells, Fluo-4 calcium, duplicate, confirmation (AID 677).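 Note: raw fluorescence intensity difference in arbitrary instrument units and not normalized.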 To be noted: ACh EC80 antagonism, at 10 µM, hits give low values.
For `CN1CCC(=C2c3ccccc3CC(=O)c3sccc32)CC1`, the calcium response (max-min fluorescence) was active: 18.1.
Take `Cc1ccccc1C(OCCN(C)C)c1ccccc1` (configuration not stated): the calcium response (max-min fluorescence) was active: 34.7.
As for `CNCCCC12CCC(c3ccccc31)c1ccccc12`, the calcium response (max-min fluorescence) is active: 49.5.
Turning to `CN(C)CCCN1c2ccccc2CCc2ccc(Cl)cc21`, the calcium response (max-min fluorescence) is active: 15.7.
Take `COc1cc2nc(N3CCN(C(=O)C4CCCO4)CC3)nc(N)c2cc1OC` (configuration not stated): the calcium response (max-min fluorescence) was inactive: 625.
Take `CCOC(=O)N1CCC(=C2c3ccc(Cl)cc3CCc3cccnc32)CC1`: the calcium response (max-min fluorescence) was active: 443.
Consider `COc1ccc(CCN2CCC(Nc3nc4ccccc4n3Cc3ccc(F)cc3)CC2)cc1`, for which the calcium response (max-min fluorescence) is active: 134.

These data come from PubChem BioAssay AID677 (Vanderbilt High Throughput Screening Facility, 2007).
